Our source for the IL-13 cell-based neutralisation assay (HEK Blue-STAT6 reporter), EC50, EGFR kinase assay (A431 cells), potency and MRC-5/TNF assay (IL-8 release), potency values is patent US20090148905A1.

What all share (assay): cell-based or functional assay
One test deals with human IL-13 (human) (UniProt P35225).
Test [1] deals with EGFR expressed on the surface of A431 cells (UniProt P00533).
In the next test the target is human TNF-α (human) (UniProt P01375).

DMS4029 (bispecific antibody): the IL-13 cell-based neutralisation assay (HEK Blue-STAT6 reporter), EC50 in the test with human IL-13 (human) was determined as 1.65 nM. In addition, the EGFR kinase assay (A431 cells), potency in test [1] stood at 9.03 nM.

Turning to “dual targeting anti-TNF/anti-EGFR mAbdAb (Example 10) (bispecific antibody)”, the EGFR kinase assay (A431 cells), potency in test [1] turned out to be 39.1 nM. In the test with human TNF-α (human), this substance returned an MRC-5/TNF assay (IL-8 release), potency of 3 pM.
